According to US20260256919A1, “BIOENHANCERS” (priority 2022, published 2026):
pIC50: −log10 of the molar value. Read-outs that look alike come from different tables or passages of the source.

Sequences of proteins named here, by UniProt entry; tags and fusion partners are left off.
UniProt P11712, whole entry: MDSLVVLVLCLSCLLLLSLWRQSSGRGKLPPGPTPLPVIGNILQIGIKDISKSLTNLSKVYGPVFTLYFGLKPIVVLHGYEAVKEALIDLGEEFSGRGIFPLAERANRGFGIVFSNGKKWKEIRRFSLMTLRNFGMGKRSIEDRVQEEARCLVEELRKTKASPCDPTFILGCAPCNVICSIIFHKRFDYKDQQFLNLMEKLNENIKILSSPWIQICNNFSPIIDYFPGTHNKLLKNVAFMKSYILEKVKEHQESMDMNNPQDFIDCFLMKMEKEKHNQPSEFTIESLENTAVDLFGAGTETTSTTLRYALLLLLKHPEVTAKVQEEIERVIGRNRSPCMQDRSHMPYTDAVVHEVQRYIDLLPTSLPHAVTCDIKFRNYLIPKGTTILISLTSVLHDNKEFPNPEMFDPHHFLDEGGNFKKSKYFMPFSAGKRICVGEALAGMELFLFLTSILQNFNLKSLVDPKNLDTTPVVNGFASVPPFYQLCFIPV
UniProt P10635, whole entry: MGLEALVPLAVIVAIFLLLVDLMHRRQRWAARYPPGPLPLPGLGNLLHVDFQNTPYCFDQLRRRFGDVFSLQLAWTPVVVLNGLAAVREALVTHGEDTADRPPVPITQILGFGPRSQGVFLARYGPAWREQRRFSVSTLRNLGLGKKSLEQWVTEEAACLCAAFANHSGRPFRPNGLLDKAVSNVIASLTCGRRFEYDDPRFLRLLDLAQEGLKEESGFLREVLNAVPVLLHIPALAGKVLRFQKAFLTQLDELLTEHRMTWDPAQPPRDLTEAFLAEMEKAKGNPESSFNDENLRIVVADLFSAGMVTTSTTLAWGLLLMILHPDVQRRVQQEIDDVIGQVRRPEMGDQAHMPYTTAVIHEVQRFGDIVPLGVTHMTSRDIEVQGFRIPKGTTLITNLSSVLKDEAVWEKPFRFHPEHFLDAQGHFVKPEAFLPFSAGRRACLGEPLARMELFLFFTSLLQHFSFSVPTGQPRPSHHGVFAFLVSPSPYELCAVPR
UniProt P10632, whole entry: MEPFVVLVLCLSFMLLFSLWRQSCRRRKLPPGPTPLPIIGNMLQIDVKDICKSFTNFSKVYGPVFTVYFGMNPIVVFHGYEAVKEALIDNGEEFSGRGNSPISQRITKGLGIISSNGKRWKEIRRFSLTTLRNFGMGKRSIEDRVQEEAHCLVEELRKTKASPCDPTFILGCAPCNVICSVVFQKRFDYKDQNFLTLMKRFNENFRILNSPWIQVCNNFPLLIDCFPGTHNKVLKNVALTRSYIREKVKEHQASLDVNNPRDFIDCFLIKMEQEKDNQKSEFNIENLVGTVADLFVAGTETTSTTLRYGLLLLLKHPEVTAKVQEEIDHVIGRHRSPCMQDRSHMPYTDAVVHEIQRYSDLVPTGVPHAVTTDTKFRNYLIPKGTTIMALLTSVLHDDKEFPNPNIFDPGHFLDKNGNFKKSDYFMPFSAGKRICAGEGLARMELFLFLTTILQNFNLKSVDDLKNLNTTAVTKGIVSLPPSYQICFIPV
UniProt P20813, whole entry: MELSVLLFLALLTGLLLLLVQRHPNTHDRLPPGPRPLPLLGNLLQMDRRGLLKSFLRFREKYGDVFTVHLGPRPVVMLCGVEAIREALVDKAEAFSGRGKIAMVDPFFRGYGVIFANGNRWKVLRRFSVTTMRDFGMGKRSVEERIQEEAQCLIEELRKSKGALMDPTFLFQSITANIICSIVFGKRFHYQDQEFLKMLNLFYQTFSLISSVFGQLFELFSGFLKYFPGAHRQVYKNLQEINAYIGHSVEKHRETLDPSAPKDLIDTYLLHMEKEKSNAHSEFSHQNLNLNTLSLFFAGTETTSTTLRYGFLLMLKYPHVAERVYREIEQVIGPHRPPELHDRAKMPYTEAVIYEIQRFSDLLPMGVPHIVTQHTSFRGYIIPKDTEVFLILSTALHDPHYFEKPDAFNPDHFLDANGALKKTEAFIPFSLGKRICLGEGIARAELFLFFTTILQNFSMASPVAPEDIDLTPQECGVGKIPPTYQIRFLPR
UniProt P33261, whole entry: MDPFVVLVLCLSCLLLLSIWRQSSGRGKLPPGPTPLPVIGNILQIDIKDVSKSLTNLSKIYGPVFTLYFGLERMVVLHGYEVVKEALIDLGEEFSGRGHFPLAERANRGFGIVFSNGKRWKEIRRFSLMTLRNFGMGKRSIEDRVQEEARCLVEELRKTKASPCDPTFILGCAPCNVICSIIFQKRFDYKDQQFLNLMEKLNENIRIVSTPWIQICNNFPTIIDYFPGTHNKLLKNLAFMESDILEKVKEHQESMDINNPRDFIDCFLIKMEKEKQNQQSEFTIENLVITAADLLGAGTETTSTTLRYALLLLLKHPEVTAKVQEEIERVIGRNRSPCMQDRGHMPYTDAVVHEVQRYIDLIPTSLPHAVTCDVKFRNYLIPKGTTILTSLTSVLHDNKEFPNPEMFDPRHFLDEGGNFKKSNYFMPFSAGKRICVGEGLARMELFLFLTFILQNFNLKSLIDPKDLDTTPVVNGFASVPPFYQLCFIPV

Legend:
CYP2C9 = CYP2C9 (Homo sapiens, UniProt P11712); experiment: Direct CYP2C9 inhibition, diclofenac 4′-hydroxylation in pooled human liver microsomes; conditions: HLM
CYP2D6 = CYP2D6 (Homo sapiens, UniProt P10635); experiment: Direct CYP2D6 inhibition, dextromethorphan O-demethylation in pooled human liver microsomes; conditions: for CYP2D6 activity expressed as % Vehicle Control: HLM, dextromethorphan; for pIC50: read-out: IC50, inhibition of CYP2D6, HLM 0.1 mg/mL, dextromethorphan 5 μM, direct inhibition
CYP2C8 = CYP2C8 (Homo sapiens, UniProt P10632); conditions: HLM, amodiaquine
CYP2B6 = CYP2B6 (Homo sapiens, UniProt P20813); experiment: Direct CYP2B6 inhibition, bupropion hydroxylation in pooled human liver microsomes; conditions: HLM
CYP3A4/5 [1] = experiment: Direct CYP3A4/5 inhibition, midazolam 1′-hydroxylation in pooled human liver microsomes; conditions: HLM, midazolam as probe substrate
CYP3A4/5 [2] = experiment: Direct CYP3A4/5 inhibition, testosterone 6β-hydroxylation in pooled human liver microsomes; conditions: HLM, testosterone as probe substrate
CYP2C19 = CYP2C19 (Homo sapiens, UniProt P33261); experiment: Direct CYP2C19 inhibition, S-mephenytoin 4′-hydroxylation in pooled human liver microsomes; conditions: HLM

## COc1cc(CNC(=O)CCCCC#Cc2ccccc2)ccc1O
CYP2C9; phenylcapsaicyn 0.005 μM
  CYP2C9 activity expressed as % Vehicle Control: 101.0 % Vehicle Control
CYP2C9; phenylcapsaicyn 0.05 μM
  CYP2C9 activity expressed as % Vehicle Control: 102.9 % Vehicle Control
CYP2C9; phenylcapsaicyn 0.5 μM
  CYP2C9 activity expressed as % Vehicle Control: 99.0 % Vehicle Control
CYP2C9; phenylcapsaicyn 5.0 μM
  CYP2C9 activity expressed as % Vehicle Control: 99.9 % Vehicle Control
CYP2C9; phenylcapsaicyn 50 μM
  CYP2C9 activity expressed as % Vehicle Control: 94.7 % Vehicle Control
CYP2D6; phenylcapsaicyn 0.005 μM
  CYP2D6 activity expressed as % Vehicle Control: 99.2 % Vehicle Control
CYP2D6; phenylcapsaicyn 0.05 μM
  CYP2D6 activity expressed as % Vehicle Control: 97.6 % Vehicle Control
CYP2D6; phenylcapsaicyn 0.5 μM
  CYP2D6 activity expressed as % Vehicle Control: 72.7 % Vehicle Control
CYP2D6; phenylcapsaicyn 5.0 μM
  CYP2D6 activity expressed as % Vehicle Control: 29.9 % Vehicle Control
CYP2D6; phenylcapsaicyn 50 μM
  CYP2D6 activity expressed as % Vehicle Control: 14.8 % Vehicle Control
CYP2D6
  pIC50: 5.95
CYP2D6; listed as phenylcapsaicyn
  pIC50: 5.96
CYP2D6; relative to positive control quinidine, up to 50 μM
  Inhibition of CYP2D6 in words: moderate inhibitor
CYP2C8; phenylcapsaicyn 0.005 μM
  CYP2C8 activity expressed as % Vehicle Control: 102.8 % Vehicle Control
CYP2C8; phenylcapsaicyn 0.05 μM
  CYP2C8 activity expressed as % Vehicle Control: 100.7 % Vehicle Control
CYP2C8; phenylcapsaicyn 0.5 μM
  CYP2C8 activity expressed as % Vehicle Control: 100.9 % Vehicle Control
CYP2C8; phenylcapsaicyn 5.0 μM
  CYP2C8 activity expressed as % Vehicle Control: 102.6 % Vehicle Control
CYP2C8; phenylcapsaicyn 50 μM
  CYP2C8 activity expressed as % Vehicle Control: 97.8 % Vehicle Control
CYP2B6; phenylcapsaicyn 0.005 μM
  CYP2B6 activity expressed as % Vehicle Control: 92.1 % Vehicle Control
CYP2B6; phenylcapsaicyn 0.05 μM
  CYP2B6 activity expressed as % Vehicle Control: 95.6 % Vehicle Control
CYP2B6; phenylcapsaicyn 0.5 μM
  CYP2B6 activity expressed as % Vehicle Control: 94.2 % Vehicle Control
CYP2B6; phenylcapsaicyn 5.0 μM
  CYP2B6 activity expressed as % Vehicle Control: 86.7 % Vehicle Control
CYP2B6; phenylcapsaicyn 50 μM
  CYP2B6 activity expressed as % Vehicle Control: 75.3 % Vehicle Control
CYP3A4/5 [1]; phenylcapsaicyn 0.005 μM
  CYP3A4/5 activity expressed as % Vehicle Control: 96.5 % Vehicle Control
CYP3A4/5 [1]; phenylcapsaicyn 0.05 μM
  CYP3A4/5 activity expressed as % Vehicle Control: 97.1 % Vehicle Control
CYP3A4/5 [1]; phenylcapsaicyn 0.5 μM
  CYP3A4/5 activity expressed as % Vehicle Control: 98.2 % Vehicle Control
CYP3A4/5 [1]; phenylcapsaicyn 5.0 μM
  CYP3A4/5 activity expressed as % Vehicle Control: 104.1 % Vehicle Control
CYP3A4/5 [1]; phenylcapsaicyn 50 μM
  CYP3A4/5 activity expressed as % Vehicle Control: 97.8 % Vehicle Control
CYP3A4/5 [2]; phenylcapsaicyn 0.005 μM
  CYP3A4/5 activity expressed as % Vehicle Control: 95.6 % Vehicle Control
CYP3A4/5 [2]; phenylcapsaicyn 0.05 μM
  CYP3A4/5 activity expressed as % Vehicle Control: 100.4 % Vehicle Control
CYP3A4/5 [2]; phenylcapsaicyn 0.5 μM
  CYP3A4/5 activity expressed as % Vehicle Control: 100.5 % Vehicle Control
CYP3A4/5 [2]; phenylcapsaicyn 5.0 μM
  CYP3A4/5 activity expressed as % Vehicle Control: 101.3 % Vehicle Control
CYP3A4/5 [2]; phenylcapsaicyn 50 μM
  CYP3A4/5 activity expressed as % Vehicle Control: 93.8 % Vehicle Control
CYP2C19; phenylcapsaicyn 0.005 μM
  CYP2C19 activity expressed as % Vehicle Control: 99.3 % Vehicle Control
CYP2C19; phenylcapsaicyn 0.05 μM
  CYP2C19 activity expressed as % Vehicle Control: 97.7 % Vehicle Control
CYP2C19; phenylcapsaicyn 0.5 μM
  CYP2C19 activity expressed as % Vehicle Control: 103.7 % Vehicle Control
CYP2C19; phenylcapsaicyn 5.0 μM
  CYP2C19 activity expressed as % Vehicle Control: 99.4 % Vehicle Control
CYP2C19; phenylcapsaicyn 50 μM
  CYP2C19 activity expressed as % Vehicle Control: 84.8 % Vehicle Control
